Measurements: patent EP4831173A1, “TYK2 INHIBITOR AND USE THEROF” (dated 2026)

By UniProt entry, the sequences of proteins in these tests, tags left out. Residues count along the entry.
UniProt P29597, whole entry: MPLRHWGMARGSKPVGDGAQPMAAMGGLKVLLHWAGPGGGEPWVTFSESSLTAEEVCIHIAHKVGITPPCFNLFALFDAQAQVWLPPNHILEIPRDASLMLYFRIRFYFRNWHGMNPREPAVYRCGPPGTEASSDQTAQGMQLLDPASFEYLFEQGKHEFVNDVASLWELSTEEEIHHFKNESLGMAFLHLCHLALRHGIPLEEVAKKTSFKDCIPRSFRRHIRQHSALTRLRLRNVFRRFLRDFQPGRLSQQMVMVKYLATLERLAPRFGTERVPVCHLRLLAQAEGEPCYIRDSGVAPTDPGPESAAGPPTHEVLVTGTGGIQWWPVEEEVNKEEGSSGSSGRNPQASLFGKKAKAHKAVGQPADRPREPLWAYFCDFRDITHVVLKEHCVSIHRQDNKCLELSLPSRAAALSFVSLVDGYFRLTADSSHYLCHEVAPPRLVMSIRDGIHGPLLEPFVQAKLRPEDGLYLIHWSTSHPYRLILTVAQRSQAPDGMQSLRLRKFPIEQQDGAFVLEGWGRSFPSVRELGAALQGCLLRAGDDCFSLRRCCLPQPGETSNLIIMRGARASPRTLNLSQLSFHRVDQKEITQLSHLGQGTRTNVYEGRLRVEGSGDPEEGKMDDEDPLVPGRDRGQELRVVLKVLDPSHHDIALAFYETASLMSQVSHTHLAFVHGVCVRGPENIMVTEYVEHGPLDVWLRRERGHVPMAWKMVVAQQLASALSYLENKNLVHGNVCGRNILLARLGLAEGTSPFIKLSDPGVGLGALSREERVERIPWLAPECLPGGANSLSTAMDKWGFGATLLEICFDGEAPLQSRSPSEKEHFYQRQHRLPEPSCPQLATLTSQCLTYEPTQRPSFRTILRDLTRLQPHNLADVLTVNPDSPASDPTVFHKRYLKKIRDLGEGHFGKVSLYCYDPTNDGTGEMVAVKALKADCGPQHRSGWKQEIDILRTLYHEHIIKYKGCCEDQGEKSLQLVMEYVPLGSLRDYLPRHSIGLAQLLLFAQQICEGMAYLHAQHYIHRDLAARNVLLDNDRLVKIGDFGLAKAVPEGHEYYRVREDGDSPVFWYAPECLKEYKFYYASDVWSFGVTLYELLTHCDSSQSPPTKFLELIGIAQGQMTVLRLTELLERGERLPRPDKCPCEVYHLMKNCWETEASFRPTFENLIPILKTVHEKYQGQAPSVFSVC
UniProt P29597, 589-875 limits assumed: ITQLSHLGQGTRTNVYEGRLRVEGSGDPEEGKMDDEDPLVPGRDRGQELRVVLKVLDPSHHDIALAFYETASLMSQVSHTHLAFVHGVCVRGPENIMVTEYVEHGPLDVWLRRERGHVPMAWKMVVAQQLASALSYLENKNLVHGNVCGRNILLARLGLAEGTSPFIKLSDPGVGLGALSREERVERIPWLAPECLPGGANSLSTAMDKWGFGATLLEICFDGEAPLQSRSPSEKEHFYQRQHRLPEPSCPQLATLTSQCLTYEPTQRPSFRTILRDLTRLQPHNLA
UniProt P29597, 897-1176 limits assumed: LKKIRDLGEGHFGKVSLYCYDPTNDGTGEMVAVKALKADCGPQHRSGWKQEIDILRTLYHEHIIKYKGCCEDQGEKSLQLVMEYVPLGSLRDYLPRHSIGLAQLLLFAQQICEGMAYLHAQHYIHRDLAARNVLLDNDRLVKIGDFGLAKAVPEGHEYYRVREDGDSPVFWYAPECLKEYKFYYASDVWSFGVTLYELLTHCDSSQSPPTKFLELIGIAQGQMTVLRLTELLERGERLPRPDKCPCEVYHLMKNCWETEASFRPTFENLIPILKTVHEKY
UniProt P52333, 822-1111 limits assumed: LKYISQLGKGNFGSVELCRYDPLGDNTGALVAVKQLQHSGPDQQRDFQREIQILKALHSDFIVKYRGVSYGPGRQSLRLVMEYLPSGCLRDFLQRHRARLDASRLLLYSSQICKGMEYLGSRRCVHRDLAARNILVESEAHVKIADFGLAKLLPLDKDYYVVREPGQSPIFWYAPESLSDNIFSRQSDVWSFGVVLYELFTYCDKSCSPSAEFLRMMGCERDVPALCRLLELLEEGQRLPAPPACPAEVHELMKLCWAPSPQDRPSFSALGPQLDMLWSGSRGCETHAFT
UniProt P23458, whole entry partner: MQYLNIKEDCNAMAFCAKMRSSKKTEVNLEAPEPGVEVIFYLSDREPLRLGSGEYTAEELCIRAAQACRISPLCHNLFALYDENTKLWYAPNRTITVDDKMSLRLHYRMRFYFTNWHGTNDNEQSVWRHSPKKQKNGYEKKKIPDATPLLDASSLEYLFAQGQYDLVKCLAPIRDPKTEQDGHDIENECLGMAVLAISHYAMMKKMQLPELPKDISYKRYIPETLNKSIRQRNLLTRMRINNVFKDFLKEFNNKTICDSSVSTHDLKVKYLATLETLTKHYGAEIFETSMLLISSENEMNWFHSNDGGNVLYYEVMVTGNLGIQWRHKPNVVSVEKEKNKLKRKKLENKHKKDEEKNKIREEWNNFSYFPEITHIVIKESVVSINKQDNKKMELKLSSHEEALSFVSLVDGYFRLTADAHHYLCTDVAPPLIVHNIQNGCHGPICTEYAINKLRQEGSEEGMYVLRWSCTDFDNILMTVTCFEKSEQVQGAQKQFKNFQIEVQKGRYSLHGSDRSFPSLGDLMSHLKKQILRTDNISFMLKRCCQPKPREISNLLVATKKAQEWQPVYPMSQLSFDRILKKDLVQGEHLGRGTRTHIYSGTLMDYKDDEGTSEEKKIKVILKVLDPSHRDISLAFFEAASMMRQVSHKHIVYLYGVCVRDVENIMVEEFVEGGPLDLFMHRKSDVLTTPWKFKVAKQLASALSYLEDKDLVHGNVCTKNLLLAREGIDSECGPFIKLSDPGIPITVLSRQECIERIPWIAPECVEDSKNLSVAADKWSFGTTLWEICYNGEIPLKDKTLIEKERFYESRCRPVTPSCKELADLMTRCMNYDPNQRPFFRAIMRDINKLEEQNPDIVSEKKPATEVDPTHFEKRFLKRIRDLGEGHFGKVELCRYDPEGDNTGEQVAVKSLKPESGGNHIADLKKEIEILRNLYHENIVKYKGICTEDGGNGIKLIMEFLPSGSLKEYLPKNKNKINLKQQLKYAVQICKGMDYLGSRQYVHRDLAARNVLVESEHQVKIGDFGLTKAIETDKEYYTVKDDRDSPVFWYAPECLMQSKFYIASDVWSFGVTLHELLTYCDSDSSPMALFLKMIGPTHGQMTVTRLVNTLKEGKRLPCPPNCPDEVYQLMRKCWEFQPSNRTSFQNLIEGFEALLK
UniProt P23458, 875-1153 limits assumed: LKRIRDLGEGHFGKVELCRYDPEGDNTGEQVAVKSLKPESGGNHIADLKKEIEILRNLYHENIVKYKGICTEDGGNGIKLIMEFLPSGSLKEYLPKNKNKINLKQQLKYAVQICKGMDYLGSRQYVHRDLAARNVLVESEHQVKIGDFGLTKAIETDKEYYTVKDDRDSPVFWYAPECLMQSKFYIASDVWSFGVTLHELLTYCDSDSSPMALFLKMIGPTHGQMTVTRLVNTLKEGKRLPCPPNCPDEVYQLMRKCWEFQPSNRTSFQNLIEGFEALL
UniProt O60674, 849-1124 limits assumed: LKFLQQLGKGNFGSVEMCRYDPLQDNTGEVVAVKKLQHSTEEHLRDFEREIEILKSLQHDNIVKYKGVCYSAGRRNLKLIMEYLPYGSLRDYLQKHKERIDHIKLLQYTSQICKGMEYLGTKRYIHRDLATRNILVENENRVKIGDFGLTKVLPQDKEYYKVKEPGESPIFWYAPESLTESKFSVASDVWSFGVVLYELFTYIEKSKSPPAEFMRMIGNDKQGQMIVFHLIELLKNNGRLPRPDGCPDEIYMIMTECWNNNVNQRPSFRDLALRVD

Columns and labels:
TYK2/JAK1 = TYK2/JAK1 (Homo sapiens, UniProt P29597); assay: TYK2/JAK1 cell activity by IFNα2B stimulation, SEAP reporter in HEK-blue IFNα/β cells; conditions: HEK-blue IFNα/β cell line, human IFNα2B 1 U/mL, 24 hours, SEAP absorbance at 630 nm
JAK3 JH1 = JAK3 JH1 (Homo sapiens, UniProt P52333); assay: JAK kinase domain activity, ADP-Glo kinase assay, JAK3; conditions: read-out: JAK3 JH1 IC50, substrate Poly (4:1 Glu-Tyr) peptide, top concentration 10000 nM
Procedure: (§1) Experimental Example 2: JAK Kinase Domain Activity Analysis
(§2) Kinase domain activity of the JAK family was analyzed using the ADP-Glo kinase assay kit (Promega). The evaluation of the compound was performed according to the manufacturer's protocol, and the method thereof is as follows:
(§3) A 10 mM test compound was diluted to 0.5 mM using DMSO in a 96-well plate, and then 5-fold serial dilutions were performed in DMSO. The diluted compound was diluted to 1/10 with 1x reaction buffer (composition) to prepare a 5x compound solution. 5 uL of the 5x compound solution was mixed with a substrate prepared in the reaction buffer (40 mM Tris, 20 mM MgCl2 and 0.1 mg/ml BSA, 0.05 mM DTT, pH 7.5), and an ATP mixture (10 uL). Next, an enzyme reaction was initiated by adding the JAK family enzyme (10 uL) prepared in the reaction buffer. A short rotation was performed to settle all the solution to the bottom of the plate. The final concentrations of the test compounds in the reaction mixture were 10000, 2000, 400, 80, 16, and 3.2 nM. The concentrations of the control compounds (Brepocitinib or Tofacitinib) were 10 times lower. The enzyme reaction was performed at 25°C for 1 hour. 25 uL of ADP-Glo reagent was added and the reaction was performed at 25 °C for 1 hour. The reaction mixed 50 uL of kinase detection reagent and was stopped, and a luminescence signal was measured using Synergy neo (BioTek Instruments, Inc.). […]

TYK2 JH1 = TYK2 JH1 (Homo sapiens, UniProt P29597); assay: JAK kinase domain activity, ADP-Glo kinase assay, TYK2; conditions: read-out: TYK2 JH1 IC50, substrate IRS1 (Y608) peptide, top concentration 10000 nM
Procedure: as §1, §2, §3

JAK1 JH1 = JAK1 JH1 (Homo sapiens, UniProt P23458); assay: JAK kinase domain activity, ADP-Glo kinase assay, JAK1; conditions: read-out: JAK1 JH1 IC50, substrate IRS1 (Y608) peptide, top concentration 10000 nM
Procedure: as §1, §2, §3

TYK2 pseudokinase domain = TYK2 pseudokinase domain (Homo sapiens, UniProt P29597); assay: TYK2 JH2 pseudokinase domain binding affinity, fluorescence polarization (BPS Bioscience inhibitor screening kit); conditions: read-out: TYK2 JH2 IC50; polarized fluorescence, 25°C, 1 hour
JAK2 JH1 = JAK2 JH1 (Homo sapiens, UniProt O60674); assay: JAK kinase domain activity, ADP-Glo kinase assay, JAK2; conditions: read-out: JAK2 JH1 IC50, substrate IGF1R peptide, top concentration 10000 nM
Procedure: as §1, §2, §3

IC50 (TYK2/JAK1) | IC50 (JAK3 JH1) | IC50 (TYK2 JH1) | IC50 (JAK1 JH1) | IC50 (TYK2 pseudokinase domain) | IC50 (JAK2 JH1) | SMILES
< 50 nM | > 10000 nM | > 10000 nM | > 10000 nM | 45 nM | > 10000 nM | CC(=O)Nc1cc2c(-c3cc(OCC(C)C)c(=O)n(C(C)C(F)(F)F)n3)cn(C3CC3)c2cn1 (stereo not drawn)
< 50 nM | > 10000 nM | > 10000 nM | > 10000 nM | 20 nM | > 10000 nM | COC1CN(c2cc(-c3cn(C4CC(C#N)C4)c4cnc(NC(C)=O)cc34)nn(C3(C)CCOC3)c2=O)C1 (stereo not drawn)
< 50 nM | > 10000 nM | > 10000 nM | > 10000 nM | 32 nM | > 10000 nM | CC(=O)Nc1cc2c(-c3ccc(=O)n(C4(C)CCOC4)n3)cn(C)c2cn1 (stereo not drawn)
< 50 nM | > 10000 nM | 10000 nM | > 10000 nM | 34 nM | > 10000 nM | CC(=O)Nc1cc2c(-c3cc(OCC(C)C)c(=O)n(C(C)C)n3)cn(C3CCC3)c2cn1
< 50 nM | > 10000 nM | > 10000 nM | 9070 nM | 14 nM | > 10000 nM | CC(=O)Nc1cc2c(-c3cc(OCC(F)F)c(=O)n([C@@H](C)C(F)(F)F)n3)cn(C3CC3)c2cn1
< 50 nM | > 10000 nM | > 10000 nM | 6540 nM | 75 nM | 2820 nM | CC(=O)Nc1cc2c(-c3cc(OCC(C)C)c(=O)n(C(C)C(F)(F)F)n3)cn(C)c2cn1 (stereo not drawn)
< 50 nM | > 10000 nM | 4650 nM | 4030 nM | 43 nM | 1890 nM | CC(=O)Nc1cc2c(-c3cc(OCC(C)C)c(=O)n([C@@H](C)C(F)(F)F)n3)cn(C)c2cn1
< 50 nM | 7820 nM | 1580 nM | 1540 nM | 33 nM | 384 nM | CC(=O)Nc1cc2c(-c3cc(N4CCC(F)(F)C4)c(=O)n([C@@H](C)C(F)(F)F)n3)cn(C)c2cn1
